{"sequences": {"note": "By UniProt entry, the sequences of proteins in these tests, tags left out. Where a name states a change or a piece, a line headed by the entry shows the natural chain unless it says otherwise.", "UniProt Q9HCR9": "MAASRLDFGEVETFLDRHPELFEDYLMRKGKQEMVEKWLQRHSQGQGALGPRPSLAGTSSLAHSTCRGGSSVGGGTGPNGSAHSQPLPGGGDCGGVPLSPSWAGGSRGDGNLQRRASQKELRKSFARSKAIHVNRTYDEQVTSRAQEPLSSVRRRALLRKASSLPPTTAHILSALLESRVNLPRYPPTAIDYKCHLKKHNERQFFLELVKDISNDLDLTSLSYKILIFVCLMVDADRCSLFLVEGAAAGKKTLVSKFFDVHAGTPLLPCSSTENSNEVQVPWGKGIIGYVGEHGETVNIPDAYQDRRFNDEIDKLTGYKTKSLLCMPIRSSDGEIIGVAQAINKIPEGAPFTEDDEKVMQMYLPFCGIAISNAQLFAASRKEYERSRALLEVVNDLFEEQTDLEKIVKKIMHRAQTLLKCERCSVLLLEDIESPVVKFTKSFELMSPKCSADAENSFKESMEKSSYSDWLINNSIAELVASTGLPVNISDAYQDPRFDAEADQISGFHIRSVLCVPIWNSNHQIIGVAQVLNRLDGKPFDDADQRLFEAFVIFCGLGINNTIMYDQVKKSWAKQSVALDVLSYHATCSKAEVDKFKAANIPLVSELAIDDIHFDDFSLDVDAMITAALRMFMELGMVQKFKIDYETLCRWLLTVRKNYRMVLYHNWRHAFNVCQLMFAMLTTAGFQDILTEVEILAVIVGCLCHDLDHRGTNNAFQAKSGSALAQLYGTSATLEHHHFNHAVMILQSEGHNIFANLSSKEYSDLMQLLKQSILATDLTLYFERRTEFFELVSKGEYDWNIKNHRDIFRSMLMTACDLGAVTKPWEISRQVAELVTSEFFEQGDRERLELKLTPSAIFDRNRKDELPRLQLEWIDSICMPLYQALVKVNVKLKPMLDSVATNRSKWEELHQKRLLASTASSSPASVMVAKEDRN"}, "source": "patent US11185540B2", "about": "“Extended release compositions of opioid antagonists and phosphodiesterase 5 inhibitors” (Pardon My Scotch, LLC, priority 2017, dated 2021)", "origin": "cited, not measured here", "molecular_target": "PDE11 (Homo sapiens, UniProt Q9HCR9)", "data": [{"molecule": "CN1CC(=O)N2[C@H](c3ccc4c(c3)OCO4)c3[nH]c4ccccc4c3C[C@@H]2C1=O", "note": "[tadalafil, pyrazino[1′,2′:1,6]pyrido[3,4-b]indole-1,4-dione, 6-(1,3-benzodioxol-5-yl)-2,3,6,7,12,12a-hexahydro-2-methyl-, (6R,12aR)-]", "values": [{"measurement": "Inhibition of PDE11", "value": "inhibit"}]}]}
